The assay deals with Mu-type opioid receptor (Homo sapiens, UniProt P35372). The class given is functional, cell-based, CHO.

Protein sequences, listed by entry. Tags and fused reporters are not part of them.
UniProt P35372, whole entry: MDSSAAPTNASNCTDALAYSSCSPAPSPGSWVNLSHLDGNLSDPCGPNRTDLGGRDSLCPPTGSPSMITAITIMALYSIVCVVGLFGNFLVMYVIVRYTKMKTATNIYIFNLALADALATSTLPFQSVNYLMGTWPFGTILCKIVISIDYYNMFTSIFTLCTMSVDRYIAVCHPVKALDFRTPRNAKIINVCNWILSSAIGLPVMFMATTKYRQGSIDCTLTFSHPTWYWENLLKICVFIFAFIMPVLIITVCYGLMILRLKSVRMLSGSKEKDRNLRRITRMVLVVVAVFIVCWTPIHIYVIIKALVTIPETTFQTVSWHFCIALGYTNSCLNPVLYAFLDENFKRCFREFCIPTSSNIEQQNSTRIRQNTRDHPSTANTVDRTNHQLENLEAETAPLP

As a reminder, the EC50 is the concentration giving half of the maximal effect. A lower EC50 goes with greater potency.

`COc1ccc2c3c1O[C@H]1C(=O)CC[C@@]4(NC(=O)/C=C/c5ccc(Cl)cc5)[C@@H](C2)N(CC2CC2)CC[C@]314` showed an EC50 of 17.8 nM.

(Values after ChEMBL document CHEMBL1152801, “14 beta-O-cinnamoylnaltrexone and related dihydrocodeinones are mu opioid receptor partial agonists with predominant antagonist activity” (J Med Chem, 2009).)
